For the assay, the target named is DENV2 sE WT (soluble envelope protein E of dengue virus 2, wild type) (dengue virus 2 (strain 16681)). Put plainly: BLI. Background: In BLI a coated tip is dipped into the sample, and binding shifts an interference pattern.

For 2D22, the dissociation constant Kd was found to be 480 nM.

3H5 came in with a dissociation constant (Kd) of 8.6 nM.

The substance 4G2 came in with a Kd of 11 nM.

For orientation: Kd means a measure of binding affinity in units of concentration.

The values above are taken from paper PMC8519570.
